Measured values as given in ChEMBL document CHEMBL4350952, “Evolution of PI3Kγ and δ Inhibitors for Inflammatory and Autoimmune Diseases” (J Med Chem, 2019).

Organism: Homo sapiens
Assay: Selectivity ratio of IC50 for N-terminal His6-tagged recombiant human full length p120gamma IC50 for N-terminal His6-tagged recombinant full length human p110delta/untagged recombinant full length human p85alpha

With `Cc1nc(Nc2cccc(N3CCCC3=O)n2)sc1-c1cc2c(c(S(C)(=O)=O)c1)C(=O)N([C@@H](C)C1CC1)C2` as the molecule, how does the Ratio IC50 read?
Its Ratio IC50 is 1.3.
